## Binding of CDR-mutated scFvs to a peptide of the spike HR2 region

Source: Engelhart et al. 2022 (doi:10.1038/s41597-022-01779-4), MIT Lincoln Laboratory and A-Alpha Bio; data file from the FLAb repository.

Antigen: PDVDLGDISGINAS, a 14-residue peptide of the SARS-CoV-2 spike HR2 region.

Parent: Ab-91, a human scFv built as VL, three GGGGS repeats, VH. Only the CDRs of the heavy chain vary.
VL: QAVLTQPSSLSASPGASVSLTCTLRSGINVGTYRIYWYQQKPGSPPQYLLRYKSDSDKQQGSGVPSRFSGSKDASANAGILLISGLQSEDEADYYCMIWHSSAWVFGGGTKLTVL
VH: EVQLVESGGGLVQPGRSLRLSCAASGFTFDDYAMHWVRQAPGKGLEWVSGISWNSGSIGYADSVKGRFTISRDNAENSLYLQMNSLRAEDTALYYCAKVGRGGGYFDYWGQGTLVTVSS

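The starting antibody came from a phage panning campaign against this peptide. Library AAYL51 holds single substitutions and randomly drawn double and triple substitutions in the CDRs. The scFvs were displayed on barcoded MATa yeast, the peptide on MATalpha yeast. Mating (16 h, 30 °C) was followed by selection of diploids and sequencing of their barcodes. Scores were corrected for input abundance and mapped to Kd with protein pairs of known affinity run in the same pool. Each pool was mated in three replicate cultures.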

Changes read parent residue, position, new residue, counted from the first residue of the VH shown. The read-out is the apparent dissociation constant on a log10 scale (nM): the lower, the stronger. The mean shown is taken over the replicates in which the pair was detected. Where no diploid with the target was found in that replicate, the entry reads "nd": below detection, most likely a poor binder, though not proof of it. Entries are sorted by rising average, undetected variants last.

| # | changes | log10 Kd (nM) by replicate | log10 Kd (nM), mean |
|---|---|---|---|
| 1 | A33S/S63L | 0.90 0.96 0.26 | 0.71 |
| 2 | G59E/K65A/V99I | 2.10 1.98 1.62 | 1.90 |
| 3 | D31E/A61L/D62W | nd 2.32 nd | 2.32 |
| 4 | T28A/I51V/G104W | 2.54 2.45 2.72 | 2.57 |
| 5 | T28I/D30E/M34L | 2.62 3.87 2.88 | 3.12 |
| 6 | T28M/M34P/Y60R | 3.48 nd nd | 3.48 |
| 7 | Y32N/V99A/D107G | 3.84 nd nd | 3.84 |
| 8 | F29W/Y105K | 3.46 4.25 4.11 | 3.94 |
| 9 | F27G/H35A/Y60T | nd 4.41 3.85 | 4.13 |
| 10 | W53Q/S55V/G103V | 4.47 3.72 4.53 | 4.24 |
| 11 | D30T/G59F/G103K | 4.36 nd nd | 4.36 |
| 12 | D30Y/S63P/Y108M | 4.09 4.76 nd | 4.42 |
| 13 | T28M/I51Q/K65W | nd 4.42 4.74 | 4.58 |
| 14 | F29G/N54H/I58H | 4.15 5.12 nd | 4.64 |
| 15 | I51N/S57L | 5.36 4.02 nd | 4.69 |
| 16 | T28H/D30R/I51F | 4.12 5.45 5.02 | 4.87 |
| 17 | G56R/G103F/Y108K | 5.50 nd 4.33 | 4.91 |
| 18 | M34D/H35G/D62A | nd 4.99 nd | 4.99 |
| 19 | G26H/H35S/G56Q | 4.57 5.47 nd | 5.02 |

Continued, with the values leading:

| # | log10 Kd (nM) by replicate | log10 Kd (nM), mean | changes |
|---|---|---|---|
| 20 | 5.85 4.22 nd | 5.04 | S52E/Y60D/F106D |
| 21 | 5.42 4.00 5.73 | 5.05 | G50C/V64H |
| 22 | 4.85 nd 5.35 | 5.10 | F29N/Y32D/V99L |
| 23 | 4.56 nd 5.69 | 5.12 | D30S/Y32H/M34S |
| 24 | nd 5.20 nd | 5.20 | T28N/S52Y/S63H |
| 25 | 3.98 6.53 nd | 5.26 | S52W/I58W/G100N |
| 26 | nd nd 5.49 | 5.49 | G50Y/Y60R/V99M |
| 27 | 5.77 nd nd | 5.77 | S55Q/Y60K |
| 28 | nd 6.11 nd | 6.11 | M34S/G103H/Y105M |
| 29 | 6.16 nd nd | 6.16 | Y32N/I51G/V64N |
| 30 | nd nd nd | nd | I58Q/Y60K/F106C |
| 31 | nd nd nd | nd | I58H/S63G |
| 32 | nd nd nd | nd | W53I/S57T/G102M |
| 33 | nd nd nd | nd | G26R/W53P/G102R |
| 34 | nd nd nd | nd | A33C/H35E/S57P |
| 35 | nd nd nd | nd | S55W/G56M/A61F |
| 36 | nd nd nd | nd | H35A/G50H/Y108T |
| 37 | nd nd nd | nd | A33Y/V64H/G104D |
| 38 | nd nd nd | nd | Y32W/H35M |
| 39 | nd nd nd | nd | S55H/S63K/V64G |

4 of these entries, quoted again:

{"changes": "F29G/N54H/I58H", "log10 Kd (nM) by replicate": "4.15 5.12 nd", "log10 Kd (nM), mean": "4.64"}
{"changes": "M34D/H35G/D62A", "log10 Kd (nM) by replicate": "nd 4.99 nd", "log10 Kd (nM), mean": "4.99"}
{"changes": "Y32W/H35M", "log10 Kd (nM) by replicate": "nd nd nd", "log10 Kd (nM), mean": "nd"}
{"changes": "D30T/G59F/G103K", "log10 Kd (nM) by replicate": "4.36 nd nd", "log10 Kd (nM), mean": "4.36"}

Empty control strains, which show no peptide, gave a signal in 21% of pairings with library AAYL51; the median was 4.54 and 95% of these signals were weaker than 3.26. No background was subtracted.